{"source": "paper PMC3805970", "about": "(Scientific Reports, 2013)", "target": "T1, Epac2 (Mus musculus, UniProt Q9EQZ6)", "T1 sequence (Q9EQZ6 1-993 isoform Q9EQZ6-3)": "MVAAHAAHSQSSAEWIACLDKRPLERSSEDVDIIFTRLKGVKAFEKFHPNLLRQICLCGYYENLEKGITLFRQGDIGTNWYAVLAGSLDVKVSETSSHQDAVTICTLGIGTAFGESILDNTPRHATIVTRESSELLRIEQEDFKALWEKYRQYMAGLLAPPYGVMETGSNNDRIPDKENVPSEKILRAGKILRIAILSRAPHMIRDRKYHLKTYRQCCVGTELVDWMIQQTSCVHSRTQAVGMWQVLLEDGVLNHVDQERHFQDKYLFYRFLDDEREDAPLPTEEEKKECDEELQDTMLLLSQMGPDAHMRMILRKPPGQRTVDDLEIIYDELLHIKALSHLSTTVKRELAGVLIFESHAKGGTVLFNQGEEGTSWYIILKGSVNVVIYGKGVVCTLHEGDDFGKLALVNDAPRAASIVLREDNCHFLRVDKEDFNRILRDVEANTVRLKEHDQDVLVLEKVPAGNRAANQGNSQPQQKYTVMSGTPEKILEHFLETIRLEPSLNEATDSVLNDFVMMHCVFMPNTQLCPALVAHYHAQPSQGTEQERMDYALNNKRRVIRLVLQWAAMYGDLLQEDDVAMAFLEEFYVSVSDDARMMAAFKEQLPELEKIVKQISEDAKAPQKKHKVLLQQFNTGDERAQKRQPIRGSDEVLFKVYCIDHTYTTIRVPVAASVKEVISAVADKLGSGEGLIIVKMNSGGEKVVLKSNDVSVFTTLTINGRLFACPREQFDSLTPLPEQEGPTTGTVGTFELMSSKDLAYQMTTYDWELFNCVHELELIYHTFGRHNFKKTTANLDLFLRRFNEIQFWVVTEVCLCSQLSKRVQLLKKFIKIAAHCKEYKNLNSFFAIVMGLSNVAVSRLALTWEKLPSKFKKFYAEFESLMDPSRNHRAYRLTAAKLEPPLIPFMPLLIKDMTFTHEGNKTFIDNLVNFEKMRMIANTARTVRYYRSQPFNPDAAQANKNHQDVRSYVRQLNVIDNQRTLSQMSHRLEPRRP", "assay": "fluorescence mGDP nucleotide exchange", "assay_type": "biochemical"}
{"smiles": "Cc1ccc(S(=O)(=O)c2c(C)cc(C)cc2C)cc1", "note": "[ESI-05, 4-Methylphenyl-2,4,6-trimethylphenylsulfone]", "values": [{"measurement": "IC50", "result": "~200", "unit": "nM"}]}
